What was measured:
[1] = target: T1, α2-adrenoceptors (Homo sapiens, UniProt P08913); assay: α2-adrenoreceptor membrane binding (3H-RS-79948-197); conditions: 100 μM highest concentration tested
T1 construct: other: 100 μM highest concentration tested

Sequences of proteins named here, by UniProt entry; tags and fusion partners are left off.
UniProt P08913, whole entry: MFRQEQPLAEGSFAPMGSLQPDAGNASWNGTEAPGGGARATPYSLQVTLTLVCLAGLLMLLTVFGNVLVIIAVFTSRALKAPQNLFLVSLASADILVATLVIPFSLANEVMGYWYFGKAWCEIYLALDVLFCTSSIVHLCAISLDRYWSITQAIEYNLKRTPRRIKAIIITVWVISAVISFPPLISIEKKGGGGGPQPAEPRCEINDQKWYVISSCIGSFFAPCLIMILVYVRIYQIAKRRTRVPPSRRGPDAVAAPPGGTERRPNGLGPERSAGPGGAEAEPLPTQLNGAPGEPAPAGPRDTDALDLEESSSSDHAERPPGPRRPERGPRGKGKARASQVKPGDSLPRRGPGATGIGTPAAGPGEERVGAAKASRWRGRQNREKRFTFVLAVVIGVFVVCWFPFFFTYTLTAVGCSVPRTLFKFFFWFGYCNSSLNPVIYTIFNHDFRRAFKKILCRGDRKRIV

[2] = target: T2, Duffy Antigen Receptor for Chemokines (DARC) (Homo sapiens, UniProt Q16570); assay: DARC binding: competition with 125I-MCP-1 on red blood cells; conditions: estimated ka for binding to red blood cells divided by average inhibitory ED50 versus each of the chemokines
T2 sequence (Q16570 1-336): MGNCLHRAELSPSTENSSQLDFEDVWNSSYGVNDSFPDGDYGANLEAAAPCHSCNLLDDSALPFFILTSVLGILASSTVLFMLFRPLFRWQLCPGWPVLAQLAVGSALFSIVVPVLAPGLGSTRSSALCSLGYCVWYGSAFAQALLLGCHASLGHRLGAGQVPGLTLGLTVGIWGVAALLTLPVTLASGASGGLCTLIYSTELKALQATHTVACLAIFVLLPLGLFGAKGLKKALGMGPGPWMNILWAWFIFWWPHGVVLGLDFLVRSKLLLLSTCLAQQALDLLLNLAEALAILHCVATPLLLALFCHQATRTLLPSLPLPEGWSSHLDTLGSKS

ED50 for competition of RS79943 binding to α2-adrenoceptors [1] | Compound | DUFFY SELECTIVITY (DARC specificity ratio) [2]
>100 µM | O=C1CCC(N2C(=O)c3ccccc3C2=O)C(=O)N1 (centres unmarked) [Thalidomide, reference compound] | –
– | NCCCC[C@H](NC(=O)[C@H](CCC(N)=O)NC(=O)[C@@H](N)CCCCN)C(=O)O [KQK] | 22.34
